Experimental data taken from PubChem BioAssay AID1439 (NMMLSC, 2008).
This is a selection; strong and weak results do not stand in their true shares. Records with an inconclusive call do not appear. Active and inactive are the calls of the source. Rule as the data show it: active = binding response below about 49% or above about 150%; inconclusive = no clear call, values can overlap the other calls; inactive = in between.

Sequences of proteins named here, by UniProt entry; tags and fusion partners are left off.
UniProt P09471, whole entry: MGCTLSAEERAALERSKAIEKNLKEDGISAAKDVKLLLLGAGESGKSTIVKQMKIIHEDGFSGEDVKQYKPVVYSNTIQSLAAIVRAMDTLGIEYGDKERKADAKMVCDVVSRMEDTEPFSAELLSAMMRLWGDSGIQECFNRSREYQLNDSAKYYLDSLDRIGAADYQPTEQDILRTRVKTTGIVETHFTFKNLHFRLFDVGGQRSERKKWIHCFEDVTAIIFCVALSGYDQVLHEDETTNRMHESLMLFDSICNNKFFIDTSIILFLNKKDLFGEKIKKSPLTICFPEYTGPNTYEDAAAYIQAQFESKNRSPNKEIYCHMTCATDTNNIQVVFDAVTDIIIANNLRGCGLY

Target: Guanine nucleotide-binding protein G(o) subunit alpha (Homo sapiens) (UniProt P09471)
Assay: compounds changing RGS7 association with Galphao – biochemical, multiplexed bead flow cytometry, primary screen (AID 1439);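 also: fluorescent Galphao held in activated GDP-AlF4 state binding bead-coupled RGS7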
Conditions: at 10 µM, actives lie on both sides

| SMILES | binding response (% of control) |
| --- | --- |
| CCOC(=O)c1ccc(NP(C)(=O)Oc2ccc(Cl)cc2)cc1 (stereo not drawn) | inactive: 102% |
| CP(=O)(OC12CC3CC(CC(C3)C1)C2)OC12CC3CC(CC(C3)C1)C2 | inactive: 101% |
| COc1ccccc1OP(C)(=O)Nc1ccccc1Br (stereo not drawn) | inactive: 105% |
| CC(C)(C)c1ccc(OP(C)(=O)O)cc1 | inactive: 109% |
| CP(=O)(Nc1ccc(Cl)cc1)Oc1ccc(F)cc1 (stereo not drawn) | inactive: 102% |
| CN(C)C(=O)c1c([N+](=O)[O-])cc([N+](=O)[O-])cc1[N+](=O)[O-] | inactive: 93.9% |
| COc1ccc(OP(C)(=O)Nc2ccc(Br)cc2)cc1 (stereo not drawn) | inactive: 96.3% |
| CCN(CC)CC(O)COC(=O)C(O)(c1ccccc1)C1CCCCC1 (stereo not drawn) | inactive: 101% |
| CP(=O)(Oc1ccccc1)N1CCOC1=O (stereo not drawn) | inactive: 101% |
| Cc1c(NP(C)(=O)Oc2ccc(C(C)C)cc2)c(=O)n(-c2ccccc2)n1C (stereo not drawn) | inactive: 94.2% |
| COc1ccccc1OP(C)(=O)Nc1ccc(C)cc1C (stereo not drawn) | inactive: 98.7% |
| CP(=O)(Nc1ccccn1)Oc1ccccc1 (stereo not drawn) | inactive: 102% |
| CCc1ccc(OP(C)(=O)O)cc1 | inactive: 100% |
| COc1ccc(OP(C)(=O)Nc2ccccn2)cc1 (stereo not drawn) | inactive: 114% |
| CN(C)CCOC(=O)C(O)(c1ccccc1)C1CCCC1 (stereo not drawn) | inactive: 106% |
| Cc1nc2ccc3ccccc3c2o1.O=[N+]([O-])c1cc([N+](=O)[O-])c(O)c([N+](=O)[O-])c1 | inactive: 100% |
| Cc1cc(C)cc(OP(C)(=O)Nc2cccc(C(F)(F)F)c2)c1 (stereo not drawn) | inactive: 99.9% |
| COc1ccccc1OP(C)(=O)Nc1ccc(C)c(C)c1 (stereo not drawn) | inactive: 101% |
| COc1ccc(OP(C)(=O)Nc2ccccc2Br)cc1 (stereo not drawn) | inactive: 97.6% |
| CP(=O)(Nc1ccccc1)Oc1ccc(F)cc1 (stereo not drawn) | inactive: 99% |

| SMILES | binding response (% of control) |
| --- | --- |
| CCOC(=O)c1ccc(NP(C)(=O)Oc2ccc(F)cc2)cc1 (stereo not drawn) | inactive: 96.6% |
| COc1ccc(OP(C)(=O)Nc2ccc(SC(F)(F)F)cc2)cc1 (stereo not drawn) | inactive: 103% |
| O=C(OCCN1CCN(CCOCc2ccccc2)CC1)C(O)(c1ccccc1)c1ccccc1 | inactive: 100% |
| CP(=O)(Nc1ccccc1F)Oc1ccccc1 (stereo not drawn) | inactive: 89.3% |
| CC(C)c1ccc(OP(C)(=O)Nc2ccc(SC(F)(F)F)cc2)cc1 (stereo not drawn) | inactive: 99.5% |
| CP(=O)(Nc1ccc2c(c1)OCCO2)Oc1ccccc1 (stereo not drawn) | inactive: 88.4% |
| Cc1ccccc1NP(C)(=O)Nc1ccccc1C | inactive: 99.5% |
| CCOP(C)(=S)SCC(=O)NC(C)(CC)C(=O)O (stereo not drawn) | inactive: 102% |
| COc1ccc(OP(C)(=O)Nc2cccc(Br)c2)cc1 (stereo not drawn) | inactive: 97.8% |
| CN(C)CCOC(=O)C(O)(c1ccccc1)C1CCCCC1 (stereo not drawn) | inactive: 101% |
| COc1ccc(NP(C)(=O)Oc2ccccc2OC)cc1 (stereo not drawn) | inactive: 104% |
| CN1CCCCC1COC(=O)C1(O)c2ccccc2CCc2ccccc21 (stereo not drawn) | inactive: 100% |
| COc1ccccc1OP(C)(=O)Nc1c(C)cccc1C (stereo not drawn) | inactive: 96.8% |
| CCCOc1ccc(NP(C)(=O)Oc2ccc(Cl)cc2)cc1 (stereo not drawn) | inactive: 104% |
| CP(=O)(Nc1ccc(SC(F)(F)F)cc1)Oc1ccccc1 (stereo not drawn) | inactive: 96.7% |
| Cc1nc2ccc3ccccc3c2s1.O=[N+]([O-])c1cc([N+](=O)[O-])c(O)c([N+](=O)[O-])c1 | inactive: 96.2% |
| O=[N+]([O-])c1cc([N+](=O)[O-])c(-n2nnc3ccccc32)c([N+](=O)[O-])c1 | inactive: 78.5% |
| Cc1ccc(C)c(NP(C)(=O)Oc2ccccc2)c1 (stereo not drawn) | inactive: 86.3% |
| Cc1cc(C)cc(OP(C)(=O)Nc2ccccn2)c1 (stereo not drawn) | inactive: 101% |
| CCOC(=O)c1ccc(NP(C)(=O)Oc2cc(C)cc(C)c2)cc1 (stereo not drawn) | inactive: 107% |

| SMILES | binding response (% of control) |
| --- | --- |
| Cc1cc(C)cc(OP(C)(=O)Nc2ccc(C)cc2C)c1 (stereo not drawn) | inactive: 103% |
| CC1=NCCc2c1[nH]c1ccccc21.O=[N+]([O-])c1cc([N+](=O)[O-])c(O)c([N+](=O)[O-])c1 | inactive: 115% |
| Cc1ccc(NP(C)(=O)Oc2ccccc2)c(C)c1 (stereo not drawn) | inactive: 102% |
| COc1ccccc1OP(C)(=O)Nc1ccc(C)cc1 (stereo not drawn) | inactive: 94.3% |
| CCOC(=O)c1ccc(NP(C)(=O)Oc2ccccc2)cc1 (stereo not drawn) | inactive: 105% |
| COc1ccc(OP(C)(=O)Nc2cccc(F)c2)cc1 (stereo not drawn) | inactive: 97.3% |
| COc1ccccc1OP(C)(=O)Nc1cc(Cl)ccc1C (stereo not drawn) | inactive: 101% |
| CC(C)(C)c1ccc(OP(C)(=O)Nc2ccc(SC(F)(F)F)cc2)cc1 (stereo not drawn) | inactive: 100% |
| CCN(CC)CCCOC(=O)C(O)(c1ccccc1)c1ccccc1 | inactive: 96.1% |
| CCOC(=O)c1ccc(NP(C)(=O)Oc2ccc(OC)cc2)cc1 (stereo not drawn) | inactive: 106% |
| CCOP(C)(=S)SCC(=O)NC(C)C(=O)O (stereo not drawn) | inactive: 102% |
| CP(=O)(Nc1ccccn1)Oc1ccc(Cl)cc1 (stereo not drawn) | inactive: 99.3% |
| Cc1cccc(C)c1OP(C)(=O)Nc1ccc(SC(F)(F)F)cc1 (stereo not drawn) | inactive: 95.3% |
| Cc1cc(C)cc(OP(C)(=O)Nc2ccc(SC(F)(F)F)cc2)c1 (stereo not drawn) | inactive: 104% |
| CP(=O)(NC(=O)Nc1ccccc1)Oc1ccccc1 (stereo not drawn) | inactive: 96.4% |
| CP(=S)(Nn1cnnc1)Oc1ccccc1 (stereo not drawn) | inactive: 114% |
| CP(=O)(Nc1ccccc1Br)Oc1ccccc1 (stereo not drawn) | inactive: 103% |
| COc1ccccc1OP(C)(=O)Nc1ccccc1 (stereo not drawn) | inactive: 110% |
